Compound activity: PubChem BioAssay, Broad Institute
An excerpt weighted towards active compounds, which were near 2.8% of everything screened.
PglD DTNB: inhibitors of Campylobacter jejuni PglD acetyltransferase. purified PglD enzyme, DTNB colorimetric CoA detection. inhibition, % at 12.5 µM. 360,000 compounds, 0.098% hits; in the data active = inhibition above about 16%, passing the limit was not always enough
esBAF inh: SWI/SNF esBAF complex inhibition; reporter increase, % at 12.5 µM; mouse ES cells, Bmi1-luciferase knock-in reporter, 24 h; 100% = twice the neutral-well signal; 350,000 compounds, 2% hits; in the data active = activation above about 40%;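 also: 0% = median of the plate's neutral control wells and 100% = double that signal; a rise in the Bmi1 reporter signal indicates esBAF inhibition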
C2C12 statin: suppression of simvastatin myotoxicity; C2C12 myotubes + simvastatin, ATP luminescence, 48 h; scaled: DMSO 0, geranylgeraniol control 100; rescue of ATP level, % at 7.49 µM; 330,000 compounds, 0.78% hits;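 active = mean ATP rescue above about 67%, or every replicate alone reaching that limit, limit read from the data, passing the limit was not always enough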;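 also: myotubes were challenged with 10 µM simvastatin during compound exposure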
PGC1a acetyl inh: lowers PGC1a acetylation signal in U2OS cells; AlphaScreen anti-acetyl-lysine; with virally co-expressed GCN5 acetyltransferase; inhibition, % at 15.6 µM; 350,000 compounds, 0.17% hits;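 active = every replicate shows inhibition of at least 40%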;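 also: 0% = neutral control wells and 100% = positive control wells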
Yeast UUG start: modulators of start codon recognition fidelity in yeast; S. cerevisiae UUG-firefly luciferase reporter, luminescence/redox ratio; activity score, % at 18.7 µM; hit rate 0.13% among 350,000; AID 602363;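 active = replicate mean at a twofold rise or more, about +100% in these data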;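 note: firefly luciferase made from a UUG start codon reports start codon fidelity; reporter light over untreated wells divided by growth signal over untreated wells; some hits fall short of that in this replicate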
E-selectin induc: E-selectin induction on HUVECs; P16581; HUVEC E-selectin immunofluorescence imaging; normalized: neutral wells 0, TNF-alpha wells 100; activation, % at 7.58 µM; 260,000 compounds, 0.37% hits;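 active = mean E-selectin-positive cell signal at least 10% of the positive control, reached in at least 60% of replicates, without over 20% cell loss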
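Assay system: HUVEC, human umbilical vein endothelial cells / Amount: 3,000 HUVEC/well / Controls: TNF-alpha positive control, DMSO neutral control / Compound dosing: single concentration / Medium: EGM-2 over gelatin coat / Evaluation: percent E-selectin-positive cells / Signal: immunofluorescence imaging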
Numbers without * were called inactive; / = no result.

A first look, 3 compounds:
1) CC(=O)N1c2ccc(S(=O)(=O)NCCC(=O)NCc3ccc(Cl)cc3)cc2CC1C (stereo not drawn)
2) CC(=O)N1c2ccc(S(=O)(=O)NCCC(=O)NCc3ccc(N(C)C)cc3)cc2CC1C (stereo not drawn)
3) COc1ccc(/C=C/C(=O)Oc2cccc(/C=N/NC(=O)COc3c(C)cccc3C)c2)cc1

| Compound | 1 | 2 | 3 |
| --- | --- | --- | --- |
| PglD DTNB | -1.0 | 1.2 | -2.4 |
| C2C12 statin | 11.9 | 92.0* | -2.1 |
| E-selectin induc | / | / | / |
| Yeast UUG start | 0.3 | -17.6 | -16.4 |
| esBAF inh | 1.7 | 0.8 | 45.2* |
| PGC1a acetyl inh | -14.6 | -6.2 | / |

The whole of this part, from the first entry:
1) CC(=O)N1c2ccc(S(=O)(=O)NCCC(=O)NCc3ccc(Cl)cc3)cc2CC1C (stereo not drawn)
2) CC(=O)N1c2ccc(S(=O)(=O)NCCC(=O)NCc3ccc(N(C)C)cc3)cc2CC1C (stereo not drawn)
3) COc1ccc(/C=C/C(=O)Oc2cccc(/C=N/NC(=O)COc3c(C)cccc3C)c2)cc1
4) COc1ccc(/C=C/C(=O)Oc2ccc(/C=N/NC(=O)COc3c(C)cccc3C)cc2)cc1
5) Clc1cnc(N/N=C/c2cccs2)c(Cl)c1
6) Oc1ccc(/C=N/Nc2ncc(Cl)cc2Cl)cc1

| Compound | 1 | 2 | 3 | 4 | 5 | 6 |
| --- | --- | --- | --- | --- | --- | --- |
| PglD DTNB | -1.0 | 1.2 | -2.4 | 0.2 | / | 2.0 |
| C2C12 statin | 11.9 | 92.0* | -2.1 | -12.7 | / | 2.6 |
| E-selectin induc | / | / | / | / | / | -0.1 |
| Yeast UUG start | 0.3 | -17.6 | -16.4 | -15.0 | / | -2.4 |
| esBAF inh | 1.7 | 0.8 | 45.2* | 2.7 | / | 44.3* |
| PGC1a acetyl inh | -14.6 | -6.2 | / | -9.9 | 5.1 | 2.3 |

7) CNC(=O)C[C@H]1CC[C@H]2[C@@H](COc3ccc(NC(=O)Nc4c(C)noc4C)cc3C(=O)N2C)O1
8) CCCOc1ccc2ccccc2c1/C=C1\SC(=O)NC1=O
9) CCCCOc1ccc2ccccc2c1C=O
10) O=C1NC(=O)/C(=C/c2cccc3ccccc23)S1
11) CC=Cc1ccc2n(c1=O)C[C@@H]1[C@@H](CO)[C@H](C(=O)NC3CCCC3)N(C(=O)C3CC3)[C@H]21 (mixture of isomers)
12) COc1ccc(-n2cnc3cc(NCc4cccs4)ccc32)cc1

| Compound | 7 | 8 | 9 | 10 | 11 | 12 |
| --- | --- | --- | --- | --- | --- | --- |
| PglD DTNB | 1.6 | -7.3 | -3.0 | -3.7 | / | -2.1 |
| C2C12 statin | 17.1 | -18.8 | -11.8 | -9.7 | / | 127.1* |
| E-selectin induc | -0.1 | 0.3 | / | 0.0 | 0.0 | / |
| Yeast UUG start | -18.1 | -9.2 | -10.9 | -21.0 | / | -22.3 |
| esBAF inh | -0.7 | 1.5 | 73.1* | -4.1 | / | 21.4 |
| PGC1a acetyl inh | -3.1 | 75.8* | 12.3 | -6.5 | 9.5 | 4.1 |

13) Cc1ccc(-n2cnc3cc(NCc4cccs4)ccc32)cc1
14) CCCc1cc(C(=O)Nc2nnc(C)s2)cs1
15) CCOc1cc(C(=O)Nc2nnc(C)s2)cc(OCC)c1OCC
16) CCCc1cc(C(=O)N/N=C/c2cccn2C)cs1
17) Cn1cccc1/C=N/NC(=O)c1cccs1
18) Cc1noc(C)c1NC(=O)Nc1ccc2c(c1)C(=O)N([C@H](C)CO)C[C@@H](C)[C@@H](CN(C)Cc1ccc(C(=O)O)cc1)O2

| Compound | 13 | 14 | 15 | 16 | 17 | 18 |
| --- | --- | --- | --- | --- | --- | --- |
| PglD DTNB | 11.6 | -1.2 | -4.1 | 5.7 | 0.4 | -2.4 |
| C2C12 statin | -6.6 | 10.8 | -6.2 | -1.2 | -8.4 | 32.6 |
| E-selectin induc | / | / | 0.5 | -0.1 | / | -3.8 |
| Yeast UUG start | -17.4 | -10.2 | 24.2 | -19.0 | -22.6 | -10.9 |
| esBAF inh | 36.7 | 50.3* | 8.0 | 53.5* | 37.1 | -0.7 |
| PGC1a acetyl inh | 14.0 | 8.0 | / | / | 8.2 | 15.9 |

19) CCNC(=O)[C@@H]1[C@@H](CO)[C@@H]2Cn3c(ccc(C4=CCCCC4)c3=O)[C@H]1N2CCC(F)(F)F
20) CCO[C@H]1OC(C(=O)N2CCCC2)=C[C@@H](c2ccc(Br)cc2)[C@@H]1CCCO
21) CCN(CC)CCN(C(=O)Cn1nnc(-c2ccc(C)o2)n1)C(C(=O)NC(C)(C)C)c1cccs1 (stereo not drawn)
22) Cc1ccc(-c2nnn(CC(=O)N(Cc3ccco3)C(C(=O)NC3CCCC3)c3cccs3)n2)o1 (stereo not drawn)
23) CCCC(=O)N1CC2(CCN(C(=O)C3CCC3)CC2)c2c(n(C)c3cc(OC)ccc23)[C@@H]1CO
24) CN(Cc1ccccc1)C(=O)c1[nH]cnc1C(=O)Nc1ccc(Cl)cc1

| Compound | 19 | 20 | 21 | 22 | 23 | 24 |
| --- | --- | --- | --- | --- | --- | --- |
| PglD DTNB | / | -2.1 | / | 1.3 | / | 2.5 |
| C2C12 statin | / | / | / | / | / | 19.0 |
| E-selectin induc | -0.3 | / | 127.6* | / | -0.2 | -0.2 |
| Yeast UUG start | / | 6.1 | / | -18.2 | / | -7.5 |
| esBAF inh | / | / | / | -2.1 | / | 39.8 |
| PGC1a acetyl inh | 5.2 | 1.4 | -8.8 | 1.3 | 0.8 | -6.0 |

25) O=C(Nc1cccc(Cl)c1)c1ccncc1
26) O=C(Nc1cccc(Cl)c1)c1nc[nH]c1C(=O)NCCCNC(=O)c1[nH]cnc1C(=O)Nc1cccc(Cl)c1
27) O=C(Nc1ccccc1)c1nc[nH]c1C(=O)NCCCCNC(=O)c1[nH]cnc1C(=O)Nc1ccccc1
28) O=C(Nc1cccc(Cl)c1)c1cnc[nH]1
29) CN(Cc1ccccc1)C(=O)c1[nH]cnc1C(=O)Nc1cccc(Cl)c1
30) CNC[C@H]1Oc2ncc(-c3cccc(F)c3)cc2C(=O)N([C@@H](C)CO)C[C@H]1C

| Compound | 25 | 26 | 27 | 28 | 29 | 30 |
| --- | --- | --- | --- | --- | --- | --- |
| PglD DTNB | 6.5 | -5.7 | 2.0 | 10.0 | -2.0 | -1.5 |
| C2C12 statin | -1.7 | 105.8* | -56.6 | -4.8 | 14.4 | -7.2 |
| E-selectin induc | / | 0.1 | 0.4 | / | 0.0 | 0.6 |
| Yeast UUG start | -22.0 | 1.8 | -20.2 | 4.0 | 22.4 | 10.4 |
| esBAF inh | 3.3 | 2.7 | 3.5 | 58.1* | 44.7* | 5.2 |
| PGC1a acetyl inh | 5.9 | 4.3 | / | -7.4 | / | 6.8 |
